Measurements from patent US7375136B2, “pH-dependent NMDA receptor antagonists” (Emory University, priority 2001, dated 2008).

The chains behind the UniProt entries cited, without tags or fusion partners. Residues count along the entry.
UniProt Q13224, 27-1484 limits assumed: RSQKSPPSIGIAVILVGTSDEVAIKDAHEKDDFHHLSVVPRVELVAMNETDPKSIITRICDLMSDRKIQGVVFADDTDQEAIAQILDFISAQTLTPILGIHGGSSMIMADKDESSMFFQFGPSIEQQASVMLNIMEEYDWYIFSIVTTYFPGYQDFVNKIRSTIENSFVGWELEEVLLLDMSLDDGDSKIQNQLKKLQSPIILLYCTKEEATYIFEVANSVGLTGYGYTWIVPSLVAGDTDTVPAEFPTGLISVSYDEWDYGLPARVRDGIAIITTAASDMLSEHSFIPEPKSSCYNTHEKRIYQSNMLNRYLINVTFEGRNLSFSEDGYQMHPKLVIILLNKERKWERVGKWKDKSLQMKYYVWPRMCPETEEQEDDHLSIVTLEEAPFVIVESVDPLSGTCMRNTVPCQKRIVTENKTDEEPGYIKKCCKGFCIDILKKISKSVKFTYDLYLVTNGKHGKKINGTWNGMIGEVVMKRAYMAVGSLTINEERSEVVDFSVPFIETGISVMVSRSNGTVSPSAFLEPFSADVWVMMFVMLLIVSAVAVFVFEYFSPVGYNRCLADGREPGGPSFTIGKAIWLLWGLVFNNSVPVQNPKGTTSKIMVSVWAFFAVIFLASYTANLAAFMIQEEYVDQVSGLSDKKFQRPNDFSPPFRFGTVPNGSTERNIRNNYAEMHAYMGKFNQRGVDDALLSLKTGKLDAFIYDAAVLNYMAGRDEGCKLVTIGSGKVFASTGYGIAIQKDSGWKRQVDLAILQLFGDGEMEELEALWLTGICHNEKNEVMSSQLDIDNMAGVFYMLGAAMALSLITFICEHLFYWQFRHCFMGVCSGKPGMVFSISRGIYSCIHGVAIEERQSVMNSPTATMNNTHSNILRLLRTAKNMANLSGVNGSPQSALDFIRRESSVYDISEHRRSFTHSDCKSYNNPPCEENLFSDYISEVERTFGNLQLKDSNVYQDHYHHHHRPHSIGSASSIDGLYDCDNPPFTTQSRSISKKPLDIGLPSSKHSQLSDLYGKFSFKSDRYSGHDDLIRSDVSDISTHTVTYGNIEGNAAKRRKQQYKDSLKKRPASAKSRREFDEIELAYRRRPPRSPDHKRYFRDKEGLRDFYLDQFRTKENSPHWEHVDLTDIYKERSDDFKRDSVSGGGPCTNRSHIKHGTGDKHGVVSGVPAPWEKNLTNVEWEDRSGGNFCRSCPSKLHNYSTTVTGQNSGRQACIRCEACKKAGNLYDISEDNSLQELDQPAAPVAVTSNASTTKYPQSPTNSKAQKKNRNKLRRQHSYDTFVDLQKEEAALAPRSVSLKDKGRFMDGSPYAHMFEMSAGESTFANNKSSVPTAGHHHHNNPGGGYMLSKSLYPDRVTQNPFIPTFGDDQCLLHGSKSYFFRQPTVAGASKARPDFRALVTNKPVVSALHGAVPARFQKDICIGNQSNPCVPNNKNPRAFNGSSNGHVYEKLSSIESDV

Target: NR1-1a/NR2B receptors (Homo sapiens, UniProt Q05586+Q13224)
Assay: Two electrode voltage clamp of Xenopus oocytes expressing NR1-1a and NR2B NMDA receptor subunits; inhibition of glutamate/glycine current at pH 6.9 and 7.6
Format: cell-based
Conditions: for Fold increase in potency between pH 7.6 and 6.9: IC50 at pH 7.6/IC50 at pH 6.9; for pIC50: read-out: IC50 at pH 6.9, pH 6.9, NR1-1a/NR2B in Xenopus oocytes
[1] = Table A, tested form: hydrochloride monohydrate
[2] = Table B, tested form: hydrochloride

CN(CCc1ccc(Cl)c(Cl)c1)C[C@@H](O)COc1ccc(NS(C)(=O)=O)cc1
Fold increase in potency between pH 7.6 and 6.9 [1]: 11.3 | pIC50 [1]: 7.07

CS(=O)(=O)Nc1ccc(OCC(O)CNCCc2ccc(Cl)cc2Cl)cc1 (stereo not drawn)
Fold increase in potency between pH 7.6 and 6.9 (Table A): 11.8 | pIC50 (Table A): 5.87

CS(=O)(=O)Nc1ccc(OC[C@H](O)CNCCc2ccc(Cl)c(Cl)c2)cc1
Fold increase in potency between pH 7.6 and 6.9 [2]: 3.26 | pIC50 [2]: 7.00

pIC50: −log10 of the molar value. Like-named read-outs stand apart in the source and are kept apart here.
